This is an account of results in article PMC6595003, “Insights into real-time chemical processes in a calcium sensor protein-directed dynamic library” (Nature Communications, 2019).

The data set can be described thus: Parallel artificial membrane permeability assay (PAMPA-BBB). To be noted: source data.

In the case of `CNCCCN1c2ccccc2CCc2ccccc21` [Desipramine], the “Pe (10-6 cm s-1) Experimental 1” value is on record as 14.9 10-6 cm s-1.
